Measurements published in patent US12116343B2, “Inhibitors of APOL1 and methods of using same” (Vertex Pharmaceuticals Incorporated, priority 2020, dated 2024).

Protein sequences, listed by entry. Tags and fused reporters are not part of them. Residues count along the entry.
UniProt O14791, 28-398 S342G/I384M limits assumed: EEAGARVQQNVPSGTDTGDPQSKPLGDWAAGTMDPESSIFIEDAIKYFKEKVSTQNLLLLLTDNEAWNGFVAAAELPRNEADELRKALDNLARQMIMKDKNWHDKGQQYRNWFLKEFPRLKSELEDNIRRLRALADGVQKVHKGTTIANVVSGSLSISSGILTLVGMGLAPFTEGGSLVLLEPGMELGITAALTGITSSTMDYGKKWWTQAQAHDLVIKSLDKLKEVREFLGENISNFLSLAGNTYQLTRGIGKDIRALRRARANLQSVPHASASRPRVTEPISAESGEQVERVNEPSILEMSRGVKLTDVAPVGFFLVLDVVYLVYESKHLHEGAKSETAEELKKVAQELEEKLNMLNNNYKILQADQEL

Target: G1 APOL1 (Homo sapiens, UniProt O14791, I384M/S342G)
Assay: Acute APOL1 Thallium Assay with inducible stable clones of HEK 293 cells
Conditions: read-out: Thallium Assay (IC50); HEK 293 T-Rex cells expressing G1 APOL1
Description: Acute APOL1 Thallium Assay with Inducible Stable Clones of HEK 293 Cells
Apolipoprotein L1 (APOL1) proteins form potassium-permeable cation pores in the plasma membrane. APOL1 risk variants (G1 and G2) induce greater potassium flux than G0 in HEK293 cells. This assay exploits the permeability of thallium (Tl+) through ligand-gated potassium channels. The dye produces a bright fluorescent signal upon binding to Tl+ conducted through potassium channels. The intensity of the Tl+ signal is proportional to the number of potassium channels in the open state. Therefore, it provides a functional indication of the potassium channel activities. During the initial dye-loading step, the Tl+ indicator dye as an acetoxymethyl (AM) ester enters the cells through passive diffusion. […] The increase of fluorescence in the assay represents the influx of Tl+ into the cell specifically through the potassium channel (i.e. through APOL1 pores), providing a functional measurement of potassium channel/pore activity. […]
Preparation of Cell Assay Plates • Culture medium is removed from the x cm^2 T-flask by aspiration. • The cell monolayer is rinsed with PBS 1× at room temperature. […] Cell suspension is then transferred to a 50 mL Falcon polypropylene tube. • Cells are then counted using a Biorad TC10 cell counter and the required amount of cells are centrifuged at 1200 RPM for 5 minutes. […]

IC50: 250 to 1000 nM
Structure (SMILES): CC(CO)(CO)NC(=O)[C@H]1C[C@@H](c2c(-c3ccc(F)cc3)[nH]c3c(F)cc(F)cc32)C1
